{"source": "patent US8563258B2", "about": "“Allergy test based on flow cytometric analysis” (Buhlmann Laboratories AG, priority 2007, dated 2013)", "system": "basophils", "conditions": "0.2 to 200 ng/ml tested (final dilution); Protocol 1"}
{"molecule": "IL-3: interleukin 3, basophil priming reagent in the Stimulation Buffer (protein, UniProt P08700 20-152, looked up) Interleukin-3: APMTQTTPLKTSWVNCSNMIDEIITHLKQPPLPLLDFNNLNGEDQDILMENNLRRPNLEAFNRAVKSLQNASAIESILKNLLPCLPLATAAPTRHPIHIKDGDWNEFRRKLTFYLKTLENAQAQQTTLSLAIF", "values": [{"measurement": "IL-3 concentration giving optimum stimulation (CD63 expression)", "value": 2, "unit": "ng/mL"}]}
